The test system of the assay is Cladosporium cucumerinum. The experiment in a line: melanin biosynthesis inhibition screen, disk diffusion assay on solidified culture. The assay is classed as cell-based. The settings on record: C. cucumerinum Antibiotic Panel; effect on growth and pigmentation in words; screen of Example 1. As for the experimental part:
Potato dextrose medium (PDM) for the screening test is prepared by melting
The mixture is autoclaved as 150 ml aliquots at 121°C for 25 minutes.
A chloramphenicol stock solution is prepared to contain 15 mg chloramphenicol per mL absolute ethanol and is stored at -20°C.
Conidia from Cladosporium cucumerinum, 10^7/mL in 0.03% Tween 20™, retain their viability for at least 12 weeks of storage in 1.8 ml cryovials at -85°C. Inoculum for running the screen are raised once every three months and stored without a cryoprotectant at the working concentration of 10^7 conidia/mL.
Fresh inoculum suspensions are prepared from conidial suspensions stored at -85°C. A cryovial is thawed by hand-heat, and 200 uL spread on the surface of PDA in 9 cm Petri dishes. Plates are placed in a resin box (to prevent fungal escape) and incubated at room temperature, 40 cm below laboratory fluorescent lights. Seven days later conidia are collected. Five mL of 0.03% Tween 20™ is added to each plate, and the conidia are released by rubbing the mycelium with a glass rod. The suspension is passed through a layer of sterile Miracloth™ and the concentration adjusted to 10^7 conidia/mL in 0.03% Tween 20™ using a haemocytometer. […]
Test compounds are applied to 0.63 cm (¼ inch) filter disks. […] The plate is read 40 hours later. […]
In general terms: Agar diffusion results depend on both activity and mobility in agar.

Molecules are shown by their SMILES.

On to `CC[C@H]1OC(=O)[C@H](C)C(=O)[C@H](C)[C@@H](O[C@@H]2O[C@H](C)C[C@H](N(C)C)[C@H]2O)[C@@H](C)C[C@@H](C)C(=O)/C=C/[C@]1(C)O` [Picromycin], for which the Observation result is given as “no effect on growth or pigmentation”.
